Assay [1] is described as follows: NCI Yeast Anticancer Drug Screen. Data for the rad50 strain (AID 155).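 Note: 0% = growth of vehicle-only cultures of the same strain.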 The following applies: S. cerevisiae rad50 strain growth inhibition; at 50.0 µM; stronger effect = higher value.
Assay [2] can be described thus: NCI Yeast Anticancer Drug Screen. Data for the mec2-1 strain (AID 157). The following applies: S. cerevisiae mec2-1 strain, at 50.0 µM, stronger effect = higher value.
A short description of assay [3]: NCI Yeast Anticancer Drug Screen. Data for the sgs1 mgt1 strain (AID 161).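 Note: 0% = growth of cultures given vehicle only.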 The following applies: S. cerevisiae sgs1 mgt1 strain, at 50.0 µM, stronger effect = higher value.
Assay [4] in a line: NCI Yeast Anticancer Drug Screen. Data for the cln2 rad14 strain (AID 165).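 Note: 0% = growth equal to vehicle treated cultures.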 The following applies: S. cerevisiae cln2 rad14 strain, at 50.0 µM, stronger effect = higher value.
Assay [5] can be described thus: NCI Yeast Anticancer Drug Screen. Data for the bub3 strain (AID 167). The following applies: S. cerevisiae bub3 mutant strain, at 50.0 µM, stronger effect = higher value.
A short description of assay [6]: NCI Yeast Anticancer Drug Screen. Data for the mlh1 rad18 strain (AID 175). The following applies: S. cerevisiae mlh1 rad18 strain growth inhibition; at 50.0 µM; stronger effect = higher value.

The entries are a selection whose mix differs from that of the whole data set. Some salts and complexes are drawn in separate pieces, as the source files them; their charges need not balance. Active and inactive are the calls of the source. Cut-off read from the data, not from the text of the source: active = growth inhibition above about 70%; inactive = the rest.

`Cc1cc(=O)n(C)n1C.O=[N+]([O-])c1cc([N+](=O)[O-])c(O)c([N+](=O)[O-])c1`: the growth inhibition in assay [1] is inactive: 17.6%; in assay [2], inactive: -8.75%; in assay [3], inactive: 6.05%; in assay [4], inactive: -30.1%; in assay [5], inactive: -9.5%; in assay [6], inactive: 13.7%.

As for `CC(C)NCCO.O=[N+]([O-])c1cc([N+](=O)[O-])c(O)c([N+](=O)[O-])c1`, the growth inhibition was inactive: -8.55% in assay [1]; inactive: 22.1% in assay [2]; inactive: 12.8% in assay [3]; inactive: 14.9% in assay [4]; inactive: 6.3% in assay [5]; inactive: -0.55% in assay [6].

In the case of `CN(C)[P+](N(C)C)(N(C)C)C(Cl)(Cl)Cl.O=[N+]([O-])c1cc([N+](=O)[O-])c([O-])c([N+](=O)[O-])c1`, the growth inhibition in assay [1] is inactive: 22.9%; in assay [2], inactive: -53.9%; in assay [3], inactive: 19.4%; in assay [4], inactive: -5.05%; in assay [5], inactive: -2.25%; in assay [6] it was inactive: 27.9%.

For `O=C1c2cc([N+](=O)[O-])cc(Br)c2-c2c1cc([N+](=O)[O-])cc2[N+](=O)[O-].c1ccccc1`, the growth inhibition was active: 96% in assay [1]; active: 98.3% in assay [2]; active: 97.8% in assay [3]; active: 95.3% in assay [4]; active: 95.3% in assay [5]; active: 98% in assay [6].

For the compound `CCCCCCCCCCCCOP(=O)(CCC)OCCCCCCCCCCCC`, the growth inhibition is inactive: 28.9% in assay [1]; inactive: 19% in assay [2]; inactive: 3% in assay [3]; inactive: 19.8% in assay [4]; inactive: -4.2% in assay [5]; inactive: 34.8% in assay [6].

Take `CCCCCCCC(C)NCCO.O=[N+]([O-])c1cc([N+](=O)[O-])c(O)c([N+](=O)[O-])c1`: the growth inhibition in assay [1] was inactive: 58.5%; in assay [2] it was inactive: 27.4%; in assay [3] it was inactive: 57%; in assay [4] it was inactive: 15%; in assay [5] it was inactive: 8.05%; in assay [6], inactive: 38%.

With `[N-]=[N+]=NC1(N=[N+]=[N-])C(=O)NC(=O)NC1=O`, the growth inhibition in assay [1] was inactive: 5.8%; in assay [2], inactive: 2.8%; in assay [3] it was inactive: 2.55%; in assay [4], inactive: 12.8%; in assay [5] it was inactive: 9.3%; in assay [6], inactive: 0.4%.

As to `Cc1cc(C)c2c(ccc3cc(C)cc(C)c32)c1.O=[N+]([O-])c1cc([N+](=O)[O-])cc([N+](=O)[O-])c1`, the growth inhibition in assay [1] was active: 96%; in assay [2], active: 99%; in assay [3], active: 98.7%; in assay [4] it was active: 81%; in assay [5], active: 98.5%; in assay [6], active: 98%.

`C1CN1.[Cl][Pt][Cl]`: the growth inhibition is inactive: -8.8% in assay [1]; inactive: 3.05% in assay [2]; inactive: -7.3% in assay [3]; inactive: 7.15% in assay [4]; inactive: 22.9% in assay [5]; inactive: 6.65% in assay [6].

Take `Cc1ccc([N+](=O)[O-])c2cccnc12.O=[N+]([O-])c1cc([N+](=O)[O-])c(O)c([N+](=O)[O-])c1`: the growth inhibition is inactive: 7.75% in assay [1]; inactive: 6.85% in assay [2]; inactive: 1.95% in assay [3]; inactive: -26.1% in assay [4]; inactive: -18.8% in assay [5]; inactive: 15.8% in assay [6].

As to `O=C(Nc1c([N+](=O)[O-])cc([N+](=O)[O-])cc1[N+](=O)[O-])c1ccccc1`, the growth inhibition in assay [1] is inactive: 19.9%; in assay [2], inactive: 8.15%; in assay [3] it was inactive: 29.8%; in assay [4] it was inactive: 22.8%; in assay [5] it was inactive: 22.6%; in assay [6], inactive: 46.6%.

Consider `C[N+]1(CCC[N+]2(C)CCCCCC2)CCCCCC1.O=[N+]([O-])c1cc([N+](=O)[O-])c(O)c([N+](=O)[O-])c1`, for which the growth inhibition in assay [1] was inactive: -11.4%; in assay [2] it was inactive: -13.3%; in assay [3], inactive: -17.6%; in assay [4], inactive: -25.1%; in assay [5] it was inactive: -8.05%; in assay [6] it was inactive: -2.4%.

As for `COC(=O)/C(=C\c1ccc(Cl)cc1)CN1CCCCC1.O=[N+]([O-])c1cc([N+](=O)[O-])c(O)c([N+](=O)[O-])c1`, the growth inhibition was inactive: 24.5% in assay [1]; inactive: -17.1% in assay [2]; inactive: 12.3% in assay [3]; inactive: -37.5% in assay [4]; inactive: -1.2% in assay [5]; inactive: -4.65% in assay [6].

Take `CC(=O)C1CCCCN1C.O=[N+]([O-])c1cc([N+](=O)[O-])c(O)c([N+](=O)[O-])c1`: the growth inhibition in assay [1] was inactive: -1.05%; in assay [2], inactive: 0.1%; in assay [3], inactive: 23.5%; in assay [4] it was inactive: -6.45%; in assay [5], inactive: -1.55%; in assay [6] it was inactive: 2.6%.

On to `CC(CC(C#N)(c1ccccc1)c1ccccc1)N(C)C.O=[N+]([O-])c1cc([N+](=O)[O-])c(O)c([N+](=O)[O-])c1` (centres undefined), for which the growth inhibition was inactive: 23.1% in assay [1]; inactive: 8.75% in assay [2]; inactive: 20.2% in assay [3]; inactive: 3.95% in assay [4]; inactive: -3.5% in assay [5]; inactive: 15.8% in assay [6].

Turning to `[C-]#[O+].[CH2-]C.[Fe+6].[c-]1[c-][c-][cH-][c-]1.c1ccc([PH+](c2ccccc2)c2ccccc2)cc1`, the growth inhibition was inactive: -7% in assay [1]; inactive: 25.9% in assay [2]; inactive: 55.1% in assay [3]; inactive: 35% in assay [4]; inactive: -4.1% in assay [5]; inactive: 31.2% in assay [6].

In the case of `O=[N+]([O-])c1cc([N+](=O)[O-])c(O)c([N+](=O)[O-])c1.Oc1cccnc1I`, the growth inhibition in assay [1] was inactive: 61.1%; in assay [2], inactive: 11.4%; in assay [3], inactive: 57.6%; in assay [4], inactive: -21.6%; in assay [5], inactive: 7.75%; in assay [6], inactive: 48.2%.

As for `CCCCc1c(CCC)c(=O)[nH]c2ccccc12.O=[N+]([O-])c1cc([N+](=O)[O-])c(O)c([N+](=O)[O-])c1`, the growth inhibition in assay [1] was inactive: 27%; in assay [2], inactive: 10.4%; in assay [3] it was inactive: 58.6%; in assay [4], inactive: 17.6%; in assay [5] it was inactive: 15.9%; in assay [6], inactive: 22.9%.

On to `O=[N+]([O-])c1cc([N+](=O)[O-])c(NNc2c([N+](=O)[O-])cc([N+](=O)[O-])cc2[N+](=O)[O-])c([N+](=O)[O-])c1`, for which the growth inhibition was active: 96.9% in assay [1]; active: 98.4% in assay [2]; active: 98.2% in assay [3]; active: 97.8% in assay [4]; active: 97.2% in assay [5]; active: 98.2% in assay [6].

With `O=[N+]([O-])c1cc([N+](=O)[O-])c(O)c([N+](=O)[O-])c1.OCCNCCc1ccccc1`, the growth inhibition in assay [1] was inactive: 43.2%; in assay [2] it was inactive: 5.85%; in assay [3], inactive: 26.6%; in assay [4], inactive: -0.65%; in assay [5] it was inactive: 4.4%; in assay [6], inactive: 16.2%.

Consider `O=[N+]([O-])c1cc([N+](=O)[O-])c(O)c([N+](=O)[O-])c1.OC1CC2CCC(C1)N2`, for which the growth inhibition in assay [1] was inactive: 4%; in assay [2] it was inactive: -1.1%; in assay [3], inactive: 5.3%; in assay [4], inactive: -38.5%; in assay [5] it was inactive: -12.8%; in assay [6] it was inactive: 2.7%.

Consider `CCN(CC)CCCl`, for which the growth inhibition was inactive: 46.6% in assay [1]; inactive: -8.35% in assay [2]; inactive: 5.95% in assay [3]; inactive: 19% in assay [4]; inactive: -21.2% in assay [5]; inactive: 40% in assay [6].

`Cc1ccc2ccc3ccc(C)cc3c2c1.O=C1c2cc([N+](=O)[O-])ccc2-c2c1cc([N+](=O)[O-])cc2[N+](=O)[O-]`: the growth inhibition is inactive: 10.5% in assay [1]; inactive: 10% in assay [2]; inactive: 7.15% in assay [3]; inactive: -17.1% in assay [4]; inactive: -4.4% in assay [5]; inactive: 36.6% in assay [6].

In the case of `Cc1ccc2ccc3cc4ccccc4cc3c2c1.O=C1c2cc([N+](=O)[O-])ccc2-c2c1cc([N+](=O)[O-])cc2[N+](=O)[O-]`, the growth inhibition is inactive: -1% in assay [1]; inactive: 0.35% in assay [2]; inactive: 5.15% in assay [3]; inactive: -7.65% in assay [4]; inactive: -4.45% in assay [5]; inactive: 25.9% in assay [6].

Source of the values: PubChem BioAssay (NCI).
